Laboratory results published in PubChem BioAssay (EPA / NIEHS).
This is a selection; strong and weak results do not stand in their true shares. The source made the active and inactive calls. The calls were made as follows: active = hit-call score of the fitted dose curve at least 0.9, where 1 is the maximum; inactive = score below 0.9.

By UniProt entry, the sequences of proteins in these tests, tags left out.
UniProt P16581, whole entry: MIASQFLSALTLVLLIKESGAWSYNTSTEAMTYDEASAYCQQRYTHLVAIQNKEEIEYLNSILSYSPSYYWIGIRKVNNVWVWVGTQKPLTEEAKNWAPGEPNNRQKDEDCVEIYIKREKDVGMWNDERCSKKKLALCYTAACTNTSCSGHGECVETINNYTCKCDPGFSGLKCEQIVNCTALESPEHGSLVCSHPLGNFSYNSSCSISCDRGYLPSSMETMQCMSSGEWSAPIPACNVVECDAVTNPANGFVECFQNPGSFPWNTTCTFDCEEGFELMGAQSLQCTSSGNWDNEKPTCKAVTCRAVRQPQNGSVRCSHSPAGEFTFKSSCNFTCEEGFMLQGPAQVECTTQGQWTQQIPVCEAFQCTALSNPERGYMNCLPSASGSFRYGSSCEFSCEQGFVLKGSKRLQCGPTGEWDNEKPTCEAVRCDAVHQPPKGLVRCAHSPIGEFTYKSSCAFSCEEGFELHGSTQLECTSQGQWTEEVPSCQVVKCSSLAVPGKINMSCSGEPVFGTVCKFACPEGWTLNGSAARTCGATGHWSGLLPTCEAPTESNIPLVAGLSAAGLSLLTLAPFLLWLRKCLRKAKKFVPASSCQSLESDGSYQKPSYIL

Assays:
[1] = APR_HepG2_CellLoss_24hr: Apredica 24-hour HepG2 Assay for Cell Loss (AID 2282908); details: high-content imaging;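 also: fit in both directions so a hit may be cell loss or gain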
Method in brief: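 Compounds were tested at 0.39–200 uM in duplicate with 0.5% v/v DMSO final. Cells were then fixed in 3.7% formaldehyde, Hoechst 33342 nuclei were imaged at 20x by HCS, and cell number was fitted bidirectionally against DMSO.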

[2] = APR_HepG2_CellLoss_72hr: Apredica 72-hour HepG2 Assay for Cell Loss (AID 2282915); details: high-content imaging
Experimental: APR_HepG2_72hr is a cell-based, multiplexed-readout assay that uses HepG2, a human liver cell line, with measurements taken at 72 hours after chemical dosing in a 384-well plate.APR_HepG2_CellLoss_72hr is one of 10 assay component(s) measured or calculated from the APR_HepG2_72hr assay. It is designed to make measurements of cell number, a form of viability reporter, as detected with fluorescence intensity signals by HCS Fluorescent Imaging technology.Data from the assay component APR_HepG2_CellLoss_72hr was analyzed into 1 assay endpoint. This assay endpoint, APR_HepG2_CellLoss_72hr, was analyzed with bidirectional fitting relative to DMSO as the negative control and baseline of activity. […] Furthermore, this assay endpoint can be referred to as a secondary readout, because this assay has produced multiple assay endpoints where this one serves a viability function. […]
Cells were treated with dimethyl sulfoxide (DMSO) as a solvent control at a final concentration of 0.5% v/v or with compounds in DMSO with a resulting final DMSO concentration of 0.5% v/v. […] Six digital images were captured in each well and analyzed using BioApplication software, which was provided with the instrument. All images were analyzed using the Compartmental Analysis and Cell Cycle Analysis BioApplication software from Cellomics. […]

[3] = BSK_3C_uPAR: BioMAP Diversity Plus: 3C Assay for Urokinase-type plasminogen activator receptor (uPAR) Biomarker Activity (AID 2282998); details: BioMAP 3C HUVEC, uPAR biomarker ELISA; actives raise or lower the signal
Method in brief: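 Primary human umbilical vein endothelial cells, 3C system; surface uPAR measured by ELISA 24 h after dosing. Cytotoxicity via SRB total protein in parallel cultures; bidirectional fit against DMSO.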

[4] = BSK_4H_Eotaxin3: BioMAP Diversity Plus: 4H Assay for Eotaxin 3 Biomarker Activity (AID 2283000); details: actives raise or lower the signal; primary human endothelial cells (HUVEC)
Method in brief: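 Readout is Eotaxin-3 (CCL26) level by ELISA in primary human umbilical vein endothelial cells harvested 24 h after chemical exposure; activity fitted in both directions against DMSO control.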

[5] = read-out: Intercellular Adhesion Molecule 1 (ICAM1), ICAM1 (gene 3383); assay: BSK_3C_ICAM1: BioMAP Diversity Plus: 3C Assay for Intercellular Adhesion Molecule 1 (ICAM1) Biomarker Activity (AID 2283003); details: actives raise or lower the signal; primary human endothelial cells (HUVEC)
Method in brief: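 Primary human umbilical vein endothelial cells in the BioMAP 3C system were exposed to chemicals for 24 h, then ICAM-1 was quantified by ELISA. Activity was fitted bidirectionally against the DMSO negative control baseline.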

[6] = read-out: Interleukin-1 alpha (IL1a), IL1A (gene 3552); assay: BSK_BE3C_IL1a: BioMAP Diversity Plus: BE3C Assay for Interleukin-1 alpha (IL1a) Biomarker Activity (AID 2283016); details: actives raise or lower the signal; primary human bronchial epithelial cells
Method in brief: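 Human primary bronchial epithelial cells (BE3C system) were dosed with compound and IL-1a measured by ELISA 24 h later. Activity was fitted bidirectionally against DMSO baseline; cytotoxicity was tracked in parallel cultures by SRB total-protein staining.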

[7] = read-out: Interleukin-8 (IL8), CXCL8 (gene 3576); assay: BSK_3C_IL8: BioMAP Diversity Plus: 3C Assay for Interleukin-8 (IL8) Biomarker Activity (AID 2283020); details: actives raise or lower the signal; primary human endothelial cells (HUVEC)
Method in brief: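 Primary human umbilical vein endothelial cells (3C system) were exposed to test chemical for 24 h, then IL-8 was quantified by ELISA. Responses were fitted bidirectionally against DMSO vehicle as baseline.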

[8] = BSK_3C_SRB: Viability Assessment in the BioMAP Diversity Plus: 3C Assay (AID 2283023); details: primary human endothelial cells (HUVEC);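 also: fitted both ways against DMSO so a hit may be signal rise or drop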
Method in brief: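 HUVEC, 24 h post-dose; 10% TCA fix, 0.1% SRB stain, A560 nm. Bidirectional curve fit vs DMSO negative control.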

[9] = BSK_4H_SRB: Viability Assessment in the BioMAP Diversity Plus: 4H Assay (AID 2283027); details: primary human endothelial cells (HUVEC);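 also: cells exposed to compound for 24 h before staining; curves fitted both ways versus DMSO so AC50 may be loss or gain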
Method in brief: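 Human umbilical vein endothelial cells, 24 h after chemical dosing; total protein measured by 0.1% sulforhodamine B staining after 10% TCA fixation, read at 560 nm. Bidirectional fitting against DMSO.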

[10] = read-out: Human Leukocyte Antigen - DR isotype (HLADR), HLA-DRA (gene 3122); assay: BSK_BE3C_HLADR: BioMAP Diversity Plus: BE3C Assay for Human Leukocyte Antigen - DR isotype (HLADR) Biomarker Activity (AID 2283032); details: actives raise or lower the signal; primary human bronchial epithelial cells
Method in brief: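 Human primary bronchial epithelial cells in the BE3C system were exposed to chemicals for 24 h, after which HLA-DR levels were quantified by ELISA. Activity was fitted bidirectionally, gain or loss of signal, against DMSO as negative control and baseline.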

[11] = read-out: Vascular cell adhesion molecule 1 (VCAM1), VCAM1 (gene 7412); assay: BSK_4H_VCAM1: BioMAP Diversity Plus: 4H Assay for Vascular cell adhesion molecule 1 (VCAM1) Biomarker Activity (AID 2283033); details: actives raise or lower the signal; primary human endothelial cells (HUVEC)
Method in brief: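 Primary human umbilical vein endothelial cells were exposed to chemicals for 24 h, after which VCAM-1 was quantified by ELISA. Responses were fitted bidirectionally against DMSO as negative control and activity baseline.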

[12] = read-out: Interferon-gamma inducible Protein 10 (IP10), CXCL10 (gene 3627); assay: BSK_BE3C_IP10: BioMAP Diversity Plus: BE3C Assay for Interferon-gamma inducible Protein 10 (IP10) Biomarker Activity (AID 2283034); details: actives raise or lower the signal; primary human bronchial epithelial cells
Method in brief: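 Human primary bronchial epithelial cells were exposed to chemicals for 24 hours, after which IP-10 levels were measured by ELISA. Data were fitted bidirectionally against DMSO, which served as the negative control and activity baseline.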

[13] = read-out: Transforming growth factor beta 1 (TGFb1), TGFB1 (gene 7040); assay: BSK_BE3C_TGFb1: BioMAP Diversity Plus: BE3C Assay for Transforming growth factor beta 1 (TGFb1) Biomarker Activity (AID 2283036); details: actives raise or lower the signal; primary human bronchial epithelial cells
Method in brief: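 Human primary bronchial epithelial cells (BE3C system) were dosed with chemical and TGF-b1 levels measured by ELISA at 24 h. Activity was fitted bidirectionally relative to DMSO negative control as baseline.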

[14] = BSK_CASM3C_Proliferation: Cell Proliferation Assessment in the BioMAP Diversity Plus: CASM3C Assay (AID 2283047); details: primary human coronary artery smooth muscle cells;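 also: sulforhodamine B total protein stain as relative cell number at 560 nm; sub-confluent cells exposed 48 h before staining; fitted both ways against DMSO so gain or loss of cell number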
[15] = read-out: Monokine induced gamma interferon (MIG), CXCL9 (gene 4283); assay: BSK_CASM3C_MIG: BioMAP Diversity Plus: CASM3C Assay for Monokine induced gamma interferon (MIG) Biomarker Activity (AID 2283048); details: actives raise or lower the signal; primary human coronary artery smooth muscle cells;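 also: MIG protein level measured by ELISA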
[16] = read-out: serum amyloid A (SAA), SAA1 (gene 6288); assay: BSK_CASM3C_SAA: BioMAP Diversity Plus: CASM3C Assay for serum amyloid A (SAA) Biomarker Activity (AID 2283049); details: actives raise or lower the signal; primary human coronary artery smooth muscle cells;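 also: SAA protein level quantified by ELISA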
[17] = read-out: Urokinase-type plasminogen activator receptor (uPAR), PLAUR (gene 5329); assay: BSK_CASM3C_uPAR: BioMAP Diversity Plus: CASM3C Assay for Urokinase-type plasminogen activator receptor (uPAR) Biomarker Activity (AID 2283054); details: actives raise or lower the signal; primary human coronary artery smooth muscle cells;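 also: cell-surface uPAR protein level quantified by ELISA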
[18] = read-out: Epidermal growth factor receptor (EGFR), EGFR (gene 1956); assay: BSK_hDFCGF_EGFR: BioMAP Diversity Plus: hDFCGF Assay for Epidermal growth factor receptor (EGFR) Biomarker Activity (AID 2283057); details: actives raise or lower the signal; primary human foreskin fibroblasts
Method in brief: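 Primary human foreskin fibroblasts were exposed to compound for 24 h, after which cell-surface EGFR was quantified by ELISA. Activity was fitted bidirectionally against the DMSO negative control as baseline.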

[19] = read-out: Interleukin-8 (IL8), CXCL8 (gene 3576); assay: BSK_hDFCGF_IL8: BioMAP Diversity Plus: hDFCGF Assay for Interleukin-8 (IL8) Biomarker Activity (AID 2283058); details: actives raise or lower the signal; primary human foreskin fibroblasts
Method in brief: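 ELISA read-out of IL-8 from primary human foreskin fibroblast cultures taken 24 h after dosing; values are bidirectional fits relative to DMSO vehicle.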

[20] = read-out: Matrix Metallopeptidase 1 (MMP1), MMP1 (gene 4312); assay: BSK_hDFCGF_MMP1: BioMAP Diversity Plus: hDFCGF Assay for Matrix Metallopeptidase 1 (MMP1) Biomarker Activity (AID 2283064); details: actives raise or lower the signal; primary human foreskin fibroblasts
Method in brief: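 Primary human foreskin fibroblasts exposed to chemicals for 24 h; MMP1 measured by ELISA. Cytotoxicity tracked by SRB staining in parallel cultures; bidirectional fit relative to DMSO.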

[21] = read-out: Intercellular Adhesion Molecule 1 (ICAM1), ICAM1 (gene 3383); assay: BSK_KF3CT_ICAM1: BioMAP Diversity Plus: KF3CT Assay for Intercellular Adhesion Molecule 1 (ICAM1) Biomarker Activity (AID 2283067); details: actives raise or lower the signal; primary human keratinocytes with fibroblasts
Method in brief: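 ELISA readout of ICAM-1; KF3CT human skin co-culture (keratinocytes + foreskin fibroblasts), 24 h post-dose; gain/loss fit vs DMSO baseline.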

[22] = read-out: E-selectin (Homo sapiens) (UniProt P16581); assay: BSK_LPS_Eselectin: BioMAP Diversity Plus: LPS Assay for Eselectin Biomarker Activity (AID 2283077); details: actives raise or lower the signal; primary human HUVEC with PBMC
Method in brief: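 ELISA readout of E-selectin, 24 h post-dose, HUVEC + PBMC co-culture (LPS system). Gain or loss of signal vs DMSO baseline, bidirectional fit.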

Measured: AC50

O=C1C2CC=CCC2C(=O)N1SC(Cl)(Cl)C(Cl)Cl (configuration not stated)
active: [1] 10.6 µM | [2] 5.44 µM | [3] 12.8 µM | [4] 14.1 µM | [5] 13.6 µM | [6] 5.03 µM | [7] 27.8 µM | [8] 11.4 µM | [9] 15.5 µM | [10] 5.05 µM | [11] 16.6 µM | [12] 5.05 µM | [13] 5.05 µM | [14] 2.17 µM | [15] 10.9 µM | [16] 11.7 µM | [17] 8.06 µM | [18] 1.54 µM | [19] 2.74 µM | [20] 1.21 µM | [21] 2.14 µM | [22] 10.1 µM
